This is an account of results in patent US7912651B2, “Function homology screening” (BioSeek LLC, priority 2000, dated 2011).

In series [1] the test system is HUVEC cells.
Series [2] deals with HUVEC cells. In words: HUVEC in basal medium cultured with factor or agent for 24 hours, cell-based ELISA. On the set-up: species or system human. Conditions: HUVEC cultured with the factor/agent for 24 hours, vs basal medium. Here is the method: The experiments provided in FIG. 1A-1C illustrate the usefulness of the present invention in compound screening applications. […] After 24 hours, cultures are washed and evaluated for the presence of the parameters ICAM-1 (1), VCAM-1 (2), E-selectin (3), IL-8 (4), CD31 (5), HLA-DR (6) and MIG (7) by cell-based ELISA as described (Melrose, J. Immunol. 161:2457, 1998). For this, plates are blocked with 1% Blotto for 1 hr, and treated with primary antibodies (obtained from Pharmingen and Becton Dickinson) at 1 ng/ml for 2 hr. After washing, secondary peroxidase-conjugated anti-mouse IgG antibody (Promega) at 1:2500 is applied for 45 min. After washing, TMB substrate (Kierkegaard & Perry) is added and color developed. Development is stopped by addition of H2SO4 and the absorbance at 450 nm (subtracting the background absorbance at 600 nm) is read with a Molecular Dynamics plate reader. The relative expression levels of each parameter are indicated by the OD at 450 nm shown along the y-axis. The mean+/−SD from triplicate samples is shown. The assay combinations shown in FIG. 1 are useful in screening compounds that modulate TNF-α, IL-1 and IFN-γ signaling pathways, however, compounds must be evaluated separately in all three assay combinations to identify compounds that selectively modulate one or more of these pathways. In addition, compounds that selectively modulate combinatorial effects of these pathways cannot be distinguished.
An assay combination with improved usefulness is described in FIG. 1B. […] The mean+/−SD from triplicate samples are shown. * indicates p<0.05 comparing results obtained with the two separate conditions. […] HUVEC cultured with IFN-γ for 24 hours express increased levels of ICAM-1, HLA-DR and MIG. HUVEC cultured in the presence of both TNF-α and IFN-γ for 24 hours produce a combined phenotype where HUVEC express increased levels of ICAM-1, VCAM-1, E-selectin, HLA-DR and MIG. […]
On the technique in general: In an ELISA, binding on a coated surface is turned into a signal by an enzyme label.

As for “TNF-α: proinflammatory cytokine used as factor”, the “release of cytoplasmic lactate dehydrogenase into the supernatant (cell damage) vs basal conditions” value with HUVEC cells [1] is on record as “enhanced”. In the series with HUVEC cells [2], the “level of E-selectin” value is listed as “increased”, the “level of ICAM-1” value was “increased” and the “level of VCAM-1” value is “increased”.
